Data published in BindingDB's records for doi:10.1021/jm0009641 (University of Bristol, 2000).

Assay: Displacement of radioligand [3H]- DAMGO on Opioid receptor mu 1 in monkey brain membranes

Molecule `COc1ccc2c3c1O[C@H]1C(=O)CC[C@@]4(NC(=O)/C=C/c5ccc(Cl)cc5)[C@@H](C2)N(CC2CC2)CC[C@]314` [1N-[4-cyclopropylmethyl-10-methoxy-14-oxo-(13R)-12-oxa-4-azapentacyclo[9.6.1.01,13.05,17.07,18]octadeca-7,9,11(18)-trien-17-yl]-3-(4-chlorophenyl)-(E)-2-propenamide] has a Ki of 0.46 nM.
